# According to PubChem BioAssay AID2105 (Johns Hopkins Ion Channel Center, 2009):
# The list shows a part of the results, in another mix than the full data. Active and inactive are the calls of the source.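 The calls were made as follows: active = dye signal at least 3 control SD above or below untreated wells in both duplicates, raw fluorescence within 3, either direction; inactive = the rest.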
# Experiment: nonspecific thallium flux effects in parental HEK293 cells, confirmation, counter-screen for Kir2.1 inhibitor project, cell-based, FluxOR thallium flux, duplicate, single concentration (AID 2105)
# Conditions: FluxOR thallium flux fluorescence, at 10 µM
row,SMILES,activity change vs negative control
1,CCC1=CC2Cc3nc4ccc(Cl)cc4c(N)c3C(C1)C2 (stereo unspecified),inactive: 0%
